Source: patent US20200121645A1, “COMPOSITION FOR PREVENTING OR TREATING EGFR-MUTANT NON-SMALL CELL LUNG CANCER” (THE ASAN FOUNDATION, priority 2018, published 2020)

System: EGFR-mutant NSCLCs (PC9 and H1975)
Experiment: Apoptotic cell death by Annexin V/PI staining and flow cytometry
Assay type: cell-based
Conditions: 2DG 10 mM; MPYR or AKG 7 mM, NAC 4 mM
Protocol: Apoptotic cell death was detected using an Annexin-V/FITC assay. Cells were harvested by trypsinization, washed with PBS, and resuspended in Annexin-V binding buffer (10 mM HEPES, pH 7.4, 140 mM NaCl, 2.5 mM CaCl2) containing Annexin-V FITC and propidium iodide. Stained cells were quantified and analyzed on a flow cytometer (BeckmanCoulter, Brea, Calif., USA).

Q: How did the “rescue from 2DG treatment-induced apoptotic cell death” value turn out when `O=C(O)CCC(=O)C(=O)O` [α-ketoglutarate] was run?
A: reversed significantly
